Laboratory results from patent US10385005B2, “Compositions and methods for glucose transport inhibition” (OHIO UNIVERSITY, priority 2010, dated 2019).

Test system: HeLa cells
Assay: Glucose uptake assay (3H 2-DG), HeLa
Assay type: cell-based, human
Conditions: 100 nM, RKO, and MCF-7 cancer cells, FIG. 7
Description: Cells were treated with α-PGG for 20 minutes before ^3H-labeled 2-DG. […] Samples: 1. Mock; 2. […] WZB-25 (30 μM); 5. WZB-26 (30 μM); and 6. WZB-27 (30 μM). Compounds 1a and 2a were initially prepared as potential anti-diabetic analogs of α-PGG (FIG. 1). Given the tight SAR of this class of compounds, it was hypothesized that a more rigid scaffold (i.e., a benzene ring) might enhance the activity. […] Error bars in FIG. 8 represent standard deviations of the measurements. Samples were done in triplicates and the experiment was repeated three times.

Insulin
effect on glucose uptake: had no effect on the glucose uptake
